Source: ChEMBL document CHEMBL3877245 (Eur J Med Chem, 2016)

Organism: Rattus norvegicus
Test: Selectivity ratio of Ki for rat alpha3beta4 nAChR to Ki for rat alpha4beta2 nAChR
With `COCC[C@H]1C[C@@H]1c1cncc(N2CCCNCC2)c1` the Ratio Ki was over 10000. Work on `COCC[C@@H]1C[C@H]1c1cncc(N2CCCNCC2)c1` yielded a Ratio Ki of over 10000. With `COCC[C@H]1C[C@@H]1c1cncc(N2CCCN(C)CC2)c1` the Ratio Ki was over 10000.
